Assay results as given in patent US5852187A, “Molecular cloning of the ovine pituitary growth hormone releasing hormone receptor” (priority 1996, dated 1998).

Target: T1, GHRH-R encoded by HAP 7 cDNA (Homo sapiens, UniProt Q02643)
T1 construct: expressed in transfected cells; host or cells: Cos-1 cells (membranes), pCDM8 vector
T1 sequence (Q02643 23-423): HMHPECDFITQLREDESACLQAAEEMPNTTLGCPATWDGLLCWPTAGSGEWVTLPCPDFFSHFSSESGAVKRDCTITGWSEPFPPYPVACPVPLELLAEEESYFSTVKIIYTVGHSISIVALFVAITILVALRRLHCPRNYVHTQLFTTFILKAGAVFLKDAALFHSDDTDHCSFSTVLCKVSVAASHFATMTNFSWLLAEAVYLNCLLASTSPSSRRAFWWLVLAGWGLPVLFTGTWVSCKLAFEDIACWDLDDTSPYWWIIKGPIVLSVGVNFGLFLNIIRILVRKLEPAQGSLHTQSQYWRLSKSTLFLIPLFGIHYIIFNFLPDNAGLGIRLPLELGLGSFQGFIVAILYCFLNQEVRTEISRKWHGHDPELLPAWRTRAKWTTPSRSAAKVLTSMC
Assay: Iodinated GHRH binding to COS cell membranes transfected with pCDM8 containing HAP 7 cDNA
Details: HAP 7 transfected COS cell membranes, FIG. 16; read-out: Ki, competition for iodinated GHRH binding

## CC[C@H](C)[C@H](NC(=O)CNC(=O)[C@H](CC(=O)O)NC(=O)[C@H](CO)NC(=O)[C@@H](N)Cc1c[nH]cn1)C(=O)N[C@@H](Cc1ccccc1)C(=O)N[C@H](C(=O)N[C@@H](CC(=O)O)C(=O)N[C@@H](CO)C(=O)N[C@@H](Cc1ccc(O)cc1)C(=O)N[C@@H](CO)C(=O)N[C@@H](CCCNC(=N)N)C(=O)N[C@@H](Cc1ccc(O)cc1)C(=O)N[C@@H](CCCNC(=N)N)C(=O)N[C@@H](CCCCN)C(=O)N[C@@H](CCC(N)=O)C(=O)N[C@@H](CCSC)C(=O)N[C@@H](C)C(=O)N[C@H](C(=O)N[C@@H](CCCCN)C(=O)N[C@@H](CCCCN)C(=O)N[C@@H](Cc1ccc(O)cc1)C(=O)N[C@@H](CC(C)C)C(=O)N[C@@H](C)C(=O)N[C@@H](C)C(=O)N[C@H](C(=O)N[C@@H](CC(C)C)C(=O)NCC(=O)N[C@@H](CCCCN)C(=O)N[C@@H](CCCNC(=N)N)C(=O)N[C@@H](Cc1ccc(O)cc1)C(=O)N[C@@H](CCCCN)C(=O)N[C@@H](CCC(N)=O)C(=O)N[C@@H](CCCNC(=N)N)C(=O)N[C@H](C(=O)N[C@@H](CCCCN)C(=O)N[C@@H](CC(N)=O)C(=O)N[C@@H](CCCCN)C(N)=O)C(C)C)C(C)C)C(C)C)[C@@H](C)O [PACAP, pituitary adenylate cyclase activating peptide]
  Ki: ~30 nM
